Data as given in PMC7160669 (Biochemistry, 2019).

Target: T1, ChdC (SaChdC; coproheme decarboxylase) (Staphylococcus aureus, UniProt A6QEP0)
T1 sequence (A6QEP0 1-250): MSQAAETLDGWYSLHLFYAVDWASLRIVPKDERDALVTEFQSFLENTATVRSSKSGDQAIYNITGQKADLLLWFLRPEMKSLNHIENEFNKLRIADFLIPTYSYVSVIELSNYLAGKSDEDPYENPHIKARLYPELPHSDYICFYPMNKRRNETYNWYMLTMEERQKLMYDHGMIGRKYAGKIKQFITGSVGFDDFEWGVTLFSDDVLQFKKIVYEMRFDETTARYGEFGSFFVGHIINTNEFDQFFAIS
Conditions: 50 mM Tris pH 8, 150 mM NaCl, 25 °C; Langmuir-Hill fit

Substance: coproheme
- Kd: 500 ± 30 nM
